Test results: ChEMBL document CHEMBL3745659, “Synthesis and Characterization of 4,11-Diaminoanthra[2,3-b]furan-5,10-diones: Tumor Cell Apoptosis through tNOX-Modulated NAD(+)/NADH Ratio and SIRT1” (J Med Chem, 2015)

System: Calf thymus DNA
Assay: Binding affinity to calf thymus double stranded DNA by spectrophotometric titration method
Assay type: nucleic-acid assay
Conditions: Bos taurus
Outline: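 Absorption spectra of compound recorded while double-stranded DNA concentration was increased (spectrophotometric titration); extinction at absorption maxima 540 and 585 nm and band shift followed.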

COc1cccc2c1C(=O)c1c(O)c3c(c(O)c1C2=O)C[C@@](O)(C(=O)CO)C[C@@H]3O[C@H]1C[C@H](N)[C@H](O)[C@H](C)O1 [DOXORUBICIN]
Ka: 2 ×10⁶ /M
